From US6713477B1, “Hydroxamic acid derivatives” (Sumitomo Pharmaceuticals Company, Limited, priority 2000, dated 2004) come the findings set out here.

Protein sequences, listed by entry. Tags and fused reporters are not part of them. Residues count along the entry.
UniProt P08254, 100-272 limits assumed: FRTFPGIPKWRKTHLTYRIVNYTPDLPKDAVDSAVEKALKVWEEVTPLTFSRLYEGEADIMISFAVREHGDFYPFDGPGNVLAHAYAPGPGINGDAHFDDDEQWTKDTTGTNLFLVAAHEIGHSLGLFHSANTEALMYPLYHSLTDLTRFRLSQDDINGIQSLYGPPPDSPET

Assay [1] addresses MMP-13 (Matrix Metalloproteinase-13, Collagenase-3) (Homo sapiens, UniProt P45452). The experiment in a line: Inhibition assay against MMP-13 (fluorescent MCA-labeled substrate). The class given is biochemical. The note with it: read-out: IC50 MMP13; Table 10; active MMP-13 at 5 nM, 37° C., 1.5 hours. An excerpt:
To subclone C-terminal truncated form of procollagenase-3 (proMMP-13) cDNA (J.Biol.Chem., 269(24), 16766-16773 (1994)), two synthetic oligonucleotide primer (5′-[…]-3′ and 5′-[…]-3′: the former incorporates sequences for a unique NdeI site (underlined) including initial methionine, and the latter has sequences for a stop codon and BamHI site (underlined)) were used with human chondrocyte cDNA library (CLONTECH) in PCR. With these primers and Pfu DNA polymerase (STRATAGENE) in PCR, 767 bp fragment was generated, which encodes 84 amino acid prosequence and 164 amino acids of mature MMP-13. The fragment was digested with NdaI and BamHI, ligated into the NdeI and BamHI sites of pET11a (STRATAGENE), transformed in E.coli BL21 (DE3) and cultured. The crude cell extract was prepared as described in Biochemistry. […]
(§1) The substrate was incubated at 37° C. for 1.5 hours (MMP-1; for 24 hours) with active MMP (at 20 nM, except MMP-13 at 5 nM) and a test compound in assay buffer containing 100 mM Tris-HCl (pH7.5), 10 mM CaCl2, 100 MM NaCl and 0.05% Brij-35. After the mixture was plated at 100 μL/well onto a 96-well microtiter plate and incubated at 37° C., enzymatic activity in the presence of the compound was estimated by measuring the fluorescence intensity (λex 320 nm, λem 405 nm) and IC50 was determined.

Assay [2] deals with MMP-3 (Matrix Metalloproteinase-3, Stromelysin-1) (Homo sapiens, UniProt P08254). The experiment in a line: Inhibition assay against MMP-3 (fluorescent MCA-labeled substrate). As to conditions: read-out: IC50 MMP3; Table 10; active MMP at 20 nM, 37° C., 1.5 hours. Here is the method:
C-terminal truncated form of human prostromelysin cDNA (proMMP-3, cDNA sequence in Nature, 348, 699-704 (1990)) was subcloned, expressed in E.coli and purified as described previously (Biochemistry 30, 6476-6483 (1991)). Activation of proMMP-3 was achieved by treatment with 1 mM 4-aminophenylmercuric acetate at 37° C. for 60 min.
Enzymatic assays were performed in accordance with C. G. Knight's method (FEBS Lett., 296(3), 263-266 (1992)). The fluorescent MCA-labeled substrate, (7-methoxycumaline-4-yl)-Pro-Leu-Gly-Leu-L-[N-(2,4-dinitrophenyl)-L-2,3-diaminopropionyl]-Ala-Arg-NH2 (Peptide Institute. Inc.) was used for measuring the kinetics of inhibition for each tested compound.
as §1

With `COc1ccc(C2SCC(=O)N2C(CC(C)C)C(=O)NO)cc1` (centres unmarked), the IC50 (commonly the concentration that gives 50% inhibition) in assay [1] worked out at 0.048 µM; in assay [2], 0.794 µM.
